Experimental data as given in patent US11779630B2, “Peptides and methods of using the same” (SERPIN PHARMA, LLC, priority 2020, dated 2023).

Biological target: T1, Recombinant LRP1 (Cluster II) (Homo sapiens, UniProt Q07954)
T1 sequence (Q07954 786-1165 limits assumed): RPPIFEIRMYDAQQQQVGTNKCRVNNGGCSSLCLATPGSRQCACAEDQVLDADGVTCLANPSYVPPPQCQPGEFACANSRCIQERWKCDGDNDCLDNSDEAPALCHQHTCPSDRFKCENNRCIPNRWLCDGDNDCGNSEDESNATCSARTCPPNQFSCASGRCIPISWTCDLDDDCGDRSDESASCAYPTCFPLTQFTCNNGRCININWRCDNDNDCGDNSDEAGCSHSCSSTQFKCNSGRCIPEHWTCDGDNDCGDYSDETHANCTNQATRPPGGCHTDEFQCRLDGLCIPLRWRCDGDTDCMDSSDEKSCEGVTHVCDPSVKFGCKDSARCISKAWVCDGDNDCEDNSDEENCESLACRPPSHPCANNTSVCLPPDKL
Assay: LRP1 binding assay, ELISA plate with biotinylated peptides
Conditions: biotinylated peptide, increasing concentrations, streptavidin HRP (FIG. 3)

FPKMVPQFNTELKIFPEVNIK (FPKMVPQFNTELKIFPEVNIK; peptide derivative) [SP34, reference compound]
binding to LRP1 Cluster II: did not bind to LRP1 Cluster II

V K F N K P F V F L M I E Q N T K (VKFNKPFVFLMIEQNTK; listed as Homo sapiens) [SP16]
binding to LRP1 Cluster II: capable of binding to LRP1 Cluster II
